Measured values taken from ChEMBL document CHEMBL1135749, “Stereoselective synthesis and antiviral activity of D-2',3'-didehydro-2',3'-dideoxy-2'-fluoro-4'-thionucleosides” (J Med Chem, 2002).

Substrate: Nc1ncnc2c1ncn2[C@@H]1O[C@H](CO)C=C1F

B1: Adenosine deaminase (Bos taurus), P56658 (protein)
chain: MAQTPAFNKPKVELHVHLDGAIKPETILYYGRKRGIALPADTPEELQNIIGMDKPLSLPEFLAKFDYYMPAIAGCREAVKRIAYEFVEMKAKDGVVYVEVRYSPHLLANSKVEPIPWNQAEGDLTPDEVVSLVNQGLQEGERDFGVKVRSILCCMRHQPSWSSEVVELCKKYREQTVVAIDLAGDETIEGSSLFPGHVKAYAEAVKSGVHRTVHAGEVGSANVVKEAVDTLKTERLGHGYHTLEDATLYNRLRQENMHFEVCPWSSYLTGAWKPDTEHPVVRFKNDQVNYSLNTDDPLIFKSTLDTDYQMTKNEMGFTEEEFKRLNINAAKSSFLPEDEKKELLDLLYKAYGMPSPASAEQCL
Km: 23 µM
